Assay: Example 3B: solubility of permethrin in PM (propylene glycol monomethyl ether), DM (diethylene glycol monomethyl ether) and PM or DPM (dipropylene glycol monomethyl ether)/d-limonene mixtures at low temperatures, seeded
Conditions: for Crystals / trans/cis isomer ratio: DM
Procedure: These solutions were poured into 100 mL tubes with screw top caps. These tubes were placed in the cold water bath and allowed to come to equilibrium at the temperature of the bath. […] The seeded preparations were then thoroughly shaken, replaced in the bath and allowed to remain in the bath for a 24 hour period. The preparations were then examined for crystallization, then again thoroughly agitated and replaced in the bath for an additional time period. Samples of the supernatant were removed after additional crystallization had occurred.
The solvent mixtures tested were: dipropylene glycol monomethyl ether/d-limonene and propylene glycol monomethyl ether/d-limonene.
These solvent mixtures were evaluated at ratios of 2:1, 1:1, 1:2, and then at 8:2 and 9:1 (the first number refers to one of the glycol ethers, the second number refers to d-limonene).

[1] = 5° C., Original % permethrin 50
[2] = 5° C., Original % permethrin 55
[3] = 5° C., Original % permethrin 60
[4] = 5° C., Original % permethrin 65

## CC1(C)C(C=C(Cl)Cl)C1C(=O)OCc1cccc(Oc2ccccc2)c1 (stereo not shown) [permethrin]
65% permethrin in DPM/d-limonene, 0% d-limonene of solvent mixture, 0° C.
  Isomer Ratio Trans/Cis: 2.90
65% permethrin in DPM/d-limonene, 0% d-limonene of solvent mixture, 5° C.
  Isomer Ratio Trans/Cis: 2.43
65% permethrin in DPM/d-limonene, 0% d-limonene of solvent mixture, 10° C.
  Isomer Ratio Trans/Cis: 1.91
65% permethrin in DPM/d-limonene, 10% d-limonene of solvent mixture, 10° C.
  Isomer Ratio Trans/Cis: 2.02
65% permethrin in DPM/d-limonene, 20% d-limonene of solvent mixture, 10° C.
  Isomer Ratio Trans/Cis: 1.75
65% permethrin in DPM/d-limonene, 33% d-limonene of solvent mixture, 0° C.
  Isomer Ratio Trans/Cis: 2.22
65% permethrin in DPM/d-limonene, 33% d-limonene of solvent mixture, 5° C.
  Isomer Ratio Trans/Cis: 1.61
65% permethrin in DPM/d-limonene, 33% d-limonene of solvent mixture, 10° C.
  Isomer Ratio Trans/Cis: 1.78
65% permethrin in DPM/d-limonene, 50% d-limonene of solvent mixture, 0° C.
  Isomer Ratio Trans/Cis: 2.26
65% permethrin in DPM/d-limonene, 50% d-limonene of solvent mixture, 5° C.
  Isomer Ratio Trans/Cis: 1.55
65% permethrin in DPM/d-limonene, 50% d-limonene of solvent mixture, 10° C.
  Isomer Ratio Trans/Cis: 1.60
65% permethrin in DPM/d-limonene, 67% d-limonene of solvent mixture, 0° C.
  Isomer Ratio Trans/Cis: 2.11
65% permethrin in DPM/d-limonene, 67% d-limonene of solvent mixture, 5° C.
  Isomer Ratio Trans/Cis: 1.42
65% permethrin in DPM/d-limonene, 67% d-limonene of solvent mixture, 10° C.
  Isomer Ratio Trans/Cis: 1.55
65% permethrin in DPM/d-limonene, 100% d-limonene of solvent mixture, 0° C.
  Isomer Ratio Trans/Cis: 2.46
65% permethrin in DPM/d-limonene, 100% d-limonene of solvent mixture, 5° C.
  Isomer Ratio Trans/Cis: 1.71
65% permethrin in DPM/d-limonene, 100% d-limonene of solvent mixture, 10° C.
  Isomer Ratio Trans/Cis: 1.39
65% permethrin in PM/d-limonene, 0% d-limonene of solvent mixture, 0° C.
  Isomer Ratio Trans/Cis: 2.85
65% permethrin in PM/d-limonene, 0% d-limonene of solvent mixture, 5° C.
  Isomer Ratio Trans/Cis: 2.66
65% permethrin in PM/d-limonene, 10% d-limonene of solvent mixture, 10° C.
  Isomer Ratio Trans/Cis: 1.87
65% permethrin in PM/d-limonene, 20% d-limonene of solvent mixture, 10° C.
  Isomer Ratio Trans/Cis: 1.54
65% permethrin in PM/d-limonene, 33% d-limonene of solvent mixture, 0° C.
  Isomer Ratio Trans/Cis: 2.60
65% permethrin in PM/d-limonene, 33% d-limonene of solvent mixture, 5° C.
  Isomer Ratio Trans/Cis: 1.8
65% permethrin in PM/d-limonene, 33% d-limonene of solvent mixture, 10° C.
  Isomer Ratio Trans/Cis: 1.70
65% permethrin in PM/d-limonene, 50% d-limonene of solvent mixture, 0° C.
  Isomer Ratio Trans/Cis: 2.13
65% permethrin in PM/d-limonene, 50% d-limonene of solvent mixture, 5° C.
  Isomer Ratio Trans/Cis: 1.65
65% permethrin in PM/d-limonene, 50% d-limonene of solvent mixture, 10° C.
  Isomer Ratio Trans/Cis: 1.53
65% permethrin in PM/d-limonene, 67% d-limonene of solvent mixture, 0° C.
  Isomer Ratio Trans/Cis: 2.25
65% permethrin in PM/d-limonene, 67% d-limonene of solvent mixture, 5° C.
  Isomer Ratio Trans/Cis: 1.48
65% permethrin in PM/d-limonene, 67% d-limonene of solvent mixture, 10° C.
  Isomer Ratio Trans/Cis: 1.37
65% permethrin in PM/d-limonene, 100% d-limonene of solvent mixture, 0° C.
  Isomer Ratio Trans/Cis: 2.46
65% permethrin in PM/d-limonene, 100% d-limonene of solvent mixture, 5° C.
  Isomer Ratio Trans/Cis: 1.71
65% permethrin in PM/d-limonene, 100% d-limonene of solvent mixture, 10° C.
  Isomer Ratio Trans/Cis: 1.39
70% permethrin in DPM/d-limonene, 0% d-limonene of solvent mixture, 0° C.
  Isomer Ratio Trans/Cis: 3.09
70% permethrin in DPM/d-limonene, 0% d-limonene of solvent mixture, 5° C.
  Isomer Ratio Trans/Cis: 2.64
70% permethrin in DPM/d-limonene, 0% d-limonene of solvent mixture, 10° C.
  Isomer Ratio Trans/Cis: 2.32
70% permethrin in DPM/d-limonene, 10% d-limonene of solvent mixture, 10° C.
  Isomer Ratio Trans/Cis: 2.21
70% permethrin in DPM/d-limonene, 20% d-limonene of solvent mixture, 10° C.
  Isomer Ratio Trans/Cis: 2.08
70% permethrin in DPM/d-limonene, 33% d-limonene of solvent mixture, 5° C.
  Isomer Ratio Trans/Cis: 1.77
70% permethrin in DPM/d-limonene, 33% d-limonene of solvent mixture, 10° C.
  Isomer Ratio Trans/Cis: 2.05
70% permethrin in DPM/d-limonene, 50% d-limonene of solvent mixture, 0° C.
  Isomer Ratio Trans/Cis: 2.42
70% permethrin in DPM/d-limonene, 50% d-limonene of solvent mixture, 5° C.
  Isomer Ratio Trans/Cis: 1.72
70% permethrin in DPM/d-limonene, 50% d-limonene of solvent mixture, 10° C.
  Isomer Ratio Trans/Cis: 2.00
70% permethrin in DPM/d-limonene, 67% d-limonene of solvent mixture, 0° C.
  Isomer Ratio Trans/Cis: 2.34
70% permethrin in DPM/d-limonene, 67% d-limonene of solvent mixture, 5° C.
  Isomer Ratio Trans/Cis: 1.65
70% permethrin in DPM/d-limonene, 67% d-limonene of solvent mixture, 10° C.
  Isomer Ratio Trans/Cis: 1.91
70% permethrin in DPM/d-limonene, 100% d-limonene of solvent mixture, 0° C.
  Isomer Ratio Trans/Cis: 2.74
70% permethrin in DPM/d-limonene, 100% d-limonene of solvent mixture, 5° C.
  Isomer Ratio Trans/Cis: 2.29
70% permethrin in DPM/d-limonene, 100% d-limonene of solvent mixture, 10° C.
  Isomer Ratio Trans/Cis: 1.46
70% permethrin in PM/d-limonene, 0% d-limonene of solvent mixture, 0° C.
  Isomer Ratio Trans/Cis: 2.49
70% permethrin in PM/d-limonene, 0% d-limonene of solvent mixture, 5° C.
  Isomer Ratio Trans/Cis: 2.64
70% permethrin in PM/d-limonene, 10% d-limonene of solvent mixture, 10° C.
  Isomer Ratio Trans/Cis: 2.17
70% permethrin in PM/d-limonene, 20% d-limonene of solvent mixture, 10° C.
  Isomer Ratio Trans/Cis: 1.94
70% permethrin in PM/d-limonene, 33% d-limonene of solvent mixture, 0° C.
  Isomer Ratio Trans/Cis: 2.80
70% permethrin in PM/d-limonene, 33% d-limonene of solvent mixture, 5° C.
  Isomer Ratio Trans/Cis: 1.94
70% permethrin in PM/d-limonene, 33% d-limonene of solvent mixture, 10° C.
  Isomer Ratio Trans/Cis: 1.98
70% permethrin in PM/d-limonene, 50% d-limonene of solvent mixture, 0° C.
  Isomer Ratio Trans/Cis: 2.53
70% permethrin in PM/d-limonene, 50% d-limonene of solvent mixture, 5° C.
  Isomer Ratio Trans/Cis: 1.70
70% permethrin in PM/d-limonene, 50% d-limonene of solvent mixture, 10° C.
  Isomer Ratio Trans/Cis: 1.87
70% permethrin in PM/d-limonene, 67% d-limonene of solvent mixture, 0° C.
  Isomer Ratio Trans/Cis: 2.50
70% permethrin in PM/d-limonene, 67% d-limonene of solvent mixture, 5° C.
  Isomer Ratio Trans/Cis: 1.69
70% permethrin in PM/d-limonene, 67% d-limonene of solvent mixture, 10° C.
  Isomer Ratio Trans/Cis: 1.74
70% permethrin in PM/d-limonene, 100% d-limonene of solvent mixture, 0° C.
  Isomer Ratio Trans/Cis: 2.74
70% permethrin in PM/d-limonene, 100% d-limonene of solvent mixture, 5° C.
  Isomer Ratio Trans/Cis: 2.29
70% permethrin in PM/d-limonene, 100% d-limonene of solvent mixture, 10° C.
  Isomer Ratio Trans/Cis: 1.46
[1]
  Crystals: 1/4
  trans/cis isomer ratio: 1.90
[2]
  Crystals: 1/2
  trans/cis isomer ratio: 1.82
[3]
  Crystals: >90%
  trans/cis isomer ratio: 2.24
[4]
  Crystals: >90%
  trans/cis isomer ratio: 2.26
